The values below come from patent US20150173369A1, “S[…] CONTROL AND IMPROVED CROP TOLERANCE FROM COMBINATIONS OF 2,4-D-CHOLINE, GLYPHOSATE, AND G[…] 2,4-D-, GLYPHOSATE- AND GLUFOSINATE-TOLERANT SOYBEANS, CORN, COTTON AND OTHER CROP AREAS” (Dow AgroSciences LLC, priority 2013, published 2015).

The series deals with AAD12 Soybean (GLXMA). The experiment in a line: Field trials, crop tolerance (% visual crop injury). The format is in vivo, Glycine max L. The conditions noted are these: table title: % Visual Necrosis; GLXMA 2DAA; 822 g ae/ha alone. The procedure: Field trials were conducted under agricultural field conditions in multiple states in the United States, including but not limited to Arkansas, Iowa, Illinois, Indiana, Kansas, Minnesota, Mississippi, Missouri, New York, Tennessee and Wisconsin. Trials were established as RCB (randomized complete block) design, with 3-4 replicates per treatment, and plot sizes varying from 5-10 feet (ft) wide by 12-30 ft long. Treatments were applied with small plot backpack sprayers, using pressurized carbon dioxide (CO2) as propellant. Pressure varied from 17-52 pounds per square inch (psi), with spray tips typically of a Flat Fan type applying water diluent at 15 gallons per acre (GPA). Boom sizes varied from 5-11 ft in width. Treatments were applied to soybean, cotton, corn or fallow crop land. Weed sizes varied, but all treatments were applied as post-emergence treatments to weeds from 2 leaf to 2 tiller growth stages varying from 3 to 17 inches in height. The weed spectrum included, but was not limited to, Amaranthus palmeri S. Wats. (Palmer amaranth, AMAPA), Ambrosia trifida L. (giant ragweed, AMBTR), Conyza canadensis (L.) Cronq. (horseweed, ERICA) and Salsola tragus L. (Russian thistle, SASKR). […]

For `CP(=O)(O)CCC(N)C(=O)O` (stereo not shown) [Glufosinate-Ammonium, ammonium (3-amino-3-carboxypropyl)(methyl)phosphinate], the “Mean % visual crop injury” value was found to be 21.3%.
